Test results: patent US8435949B2, “Pheromones and the luteinizing hormone for inducing proliferation of neural stem cells and neurogenesis” (Stem Cell Therapeutics Corp., priority 2004, dated 2013)

Assays:
[1] = tested on: neural stem cells in the SVZ; assay: Infusion into the lateral ventricle by osmotic pump; BrdU positive (proliferating) cells counted in the SVZ; format: in vivo, mice; settings: for proliferation in the SVZ as compared to the control group: LH or hCG infusion vs vehicle alone, Example 5, present tense
Protocol: (§1) To examine the number of progenitor cells in the SVZ after treatment, bromodeoxyuridine (BrdU) injections were used to label these cells. Animals received BrdU injections (120 mg/kg, i.p., dissolved in 0.007% NaOH in phosphate buffer) every 2 hours for a 10 hour period. Each injection of BrdU will only label proliferating cells in the &phase and the purpose of having a series of BrdU injection is to ensure the continuing availability of BrdU for full incorporation (Morshead and van der Kooy, 1992).
The sections were post-fixed with acetone for 30 seconds at room temperature and washed with PBS. For BrdU staining, the tissue was treated with 1M HCl for 22 minutes at 60° C. to denature cellular DNA. Sections were then incubated for 24 hours at room temperature in primary antibody (rat anti-BrdU, 1:50) diluted in 0.3% PBS-T containing 10% NGS, washed with PBS, and then incubated with goat-anti-rat secondary antibodies conjugated to biotin (1:200) for 1 hour at room temperature. After rinsing with ddH2O, sections were mounted with Fluorosave, because staining was visualized with CY3-Streptavodin, and viewed with a Zeiss Axiophot fluorescence microscope.
A one-in-ten series of coronal sections (14 μm) from the rostral tip of the lateral ventricle to caudal most aspect of the ventricles (total 10 sections) were collected. BrdU-positive cells were then counted in the defining ependymal-subependymal layer.
(§2) Sixteen 8-week-old CD-1 mice (Charles-River, Laval, Quebec, Canada) were anesthetized with sodium pentobarbital (120 mg/kg, i.p.) and implanted with osmotic pumps (Alzet 1007D; Alza, Palo Alto, Calif.). The cannulas were located in the right lateral ventricle (anteroposterior +0.2 mm, lateral +0.8 mm to bregma, and dorsoventral 2.5 mm below dura with the skull leveled between lambda and bregma). LH (33 μg/ml human LH derived from the pituitary; the National hormone and peptide program, University of California Los Angeles, Calif., USA) was dissolved in 0.9% saline containing 1 mg/ml mouse serum albumin (Sigma). Each animal was infused for 6 d with either vehicle alone or LH at a flow rate of 0.5 μl/hr, resulting in a delivery of 400 ng/d of LH.

neural stem cells = assay: Neural stem cell culture: secondary sphere formation from dissociated primary spheres (self-renewal); format: cell-based, mice
Protocol: Generation and differentiation of spheres from embryonic and adult forebrain were performed as described previously with minor modifications (Reynolds and Weiss, 1992; Reynolds et al., 1992). Briefly, striato-pallidum complexes were removed from mouse embryos at E14 and collected into PBS containing 0.6% glucose, penicillin (50 U/ml), and streptomycin (50 U/ml; both from Life Technologies, Gaithersburg, Md.) and then transferred into the standard culture medium composed of DMEM-F-12 (1:1), glucose (0.6%), glutamine (2 mM), sodium bicarbonate (3 mM), HEPES buffer (5 mM), insulin (25 μg/ml), transferrin (100 μg/ml), progesterone ([…]), putrescine (60 μM), and selenium chloride (30 nM) (all from Sigma, St. Louis, Mo., except glutamine from Life Technologies) For adult neural stem cell cultures, medial and lateral portions of the lateral ventricle subependyma from the adult brain were dissected from both hemispheres, pooled together, subsequently cut into 1 mm^2 fragments, and transferred into the standard culture medium containing 1.33 mg/ml trypsin, 0:67 mg/ml hyaluronidase, and 0.2 mg/ml kynurenic acid (all from Sigma). After 30 min at 37° C., the tissue was transferred to the standard culture medium containing 0.7 mg/ml trypsin inhibitor (Roche Diagnostics, Laval, Quebec, Canada). Tissue pieces were mechanically dissociated with micropipettes. Cells were seeded at various densities into the standard culture medium, which also contained EGF (20 ng/ml human recombinant; Peprotech, Rocky Hill, N.J.). Cells were cultured for 7 days in vitro (DIV) and formed floating cell clusters (spheres). All the mice for culture experiments were killed by cervical dislocation.
To confirm that LH stimulates proliferation of neural stem cells, neural stem cell cultures were established as described in Materials and Methods. Primary spheres were dissociated and plated in the presence of EGF or EGF plus LH (30 nM) at limited density to allow formation of secondary spheres.

[2] = human use; intramuscular injection; cited from earlier work
[3] = tested on: proliferating cells in the hippocampus; assay: Infusion by osmotic pump; proliferating cells in the hippocampus; format: in vivo, mice; settings: both gender; hCG infusion; Example 4, present tense
Protocol: as §1, §2
HCG has the same activity as LH.

[4] = tested on: doublecortin or NeuN positive cells in the SVZ or olfactory bulb; assay: Infusion by osmotic pump; neurogenesis by neuron marker (doublecortin or NeuN) positive cells; format: in vivo; settings: mice infused with hCG; Example 4, present tense
[5] = tested on: proliferating cells in the forebrain SVZ; assay: Single intramuscular injection of hCG; BrdU positive cells in the forebrain SVZ; format: in vivo, CD-1 mice
Protocol: Six to eight week old female CD-1 mice received a single intramuscular injection of 5.0 USP units of recombinant hCG (Sigma Catalog Number C 6322) in a 0.05 ml volume (diluted in saline). Control mice received a single injection of saline alone. The mice then received 6 injections of BrdU (120 mg/kg), one every two hours, beginning two hours after the hCG injection. The mice were sacrificed thirty-minutes after the last BrdU injection, perfused transcardially with 4% paraformaldehyde; and the tissue was processed for cryosectioning. Brains were sectioned serially at 14 microns onto two sets of seven slides each, 12 sections on each slide. The number of BrdU positive cells was counted in the forebrain SVZ on one slide for each of the control and hCG injected animals. The following data are the average numbers of BrdU+ cells per section in the control (saline only) and hCG-injected mice, respectively.

Substance: LH: human LH derived from the pituitary; the National hormone and peptide program
- proliferation in the SVZ as compared to the control group [1]: increases proliferation
- neural stem cell proliferation in the SVZ and hippocampus ([1]; both females and males, summary statement): sufficient to induce neural stem cell proliferation
- proliferation (number of BrdU positive cells) in the SVZ ([1]; female mice, 2-day or 6-day infusion of LH vs vehicle (FIGS. 7A and 7B)): increase proliferation significantly
- proliferation (number of BrdU positive cells) in the SVZ ([1]; male mice, 2-day infusion of LH vs vehicle (FIG. 8)): increase proliferation significantly
- effectiveness on neural stem cells isolated from female vs male mice (neural stem cells; LH 30 nM with EGF): more effective on the neural stem cells isolated from female mice
- self-renewal of neural stem cells in culture (neural stem cells; LH 30 nM with EGF): capable of increasing self-renewal

Substance: Pregnyl: injectable, highly purified preparation of human chorionic gonadotropin obtained from the urine of pregnant women
- maximal safe dose [2]: 10,000 USP units per day

Substance: Profasi: human chorionic gonadotropin (hCG), administered intramuscularly (Table 1); b178 calls it LH
- maximal safe dose [2]: 10,000 USP units per day

Substance: hCG: recombinant hCG: choriogonadotropin alfa in Examples 4-5; Sigma Catalog Number C 6322 in Example 6
- proliferation in the SVZ as compared to the control group [1]: increases proliferation
- proliferation in the SVZ ([1]; male and female mice infused with recombinant hCG (choriogonadotropin alfa) vs vehicle, Example 4, present tense): significantly increases proliferation
- proliferating cells in the hippocampus [3]: increase significantly
- number of doublecortin or NeuN positive cells in the SVZ or olfactory bulb [4]: significantly higher
- number of secondary spheres (neural stem cells; EGF plus choriogonadotropin alfa vs EGF, neural stem cells from male or female animals, Example 4, present tense): significantly increases the number of secondary spheres
- average number of BrdU+ cells per section in the forebrain SVZ ([5]; female CD-1 mice, single intramuscular injection of 5.0 USP units, n=4, p<0.02 vs saline 163±6): 206±13 BrdU+ cells per section
- increase of proliferation in the forebrain SVZ ([5]; single low dose hCG injection vs saline): 26%
